Measured values as given in US6335176B1, “Incorporation of phosphorylation sites” (Pharmacopeia, Inc., priority 1998, dated 2002).

Molecular target: β2-adrenergic receptor (Homo sapiens, UniProt P07550)
Test: Receptor binding of 33P-labeled alprenolol derivative to cells expressing the receptor
Details: 33P-labeled ligand, FIG. 8

N-α-acetyl-S-[alprenolol amido-(6-aminothioacetyl)hexonyl](SEQ ID NO. 7) cys-ser-arg-arg-ala-[^33PO3]phosphoser-val-tyr-amide [alprenolol derivative]
specific binding to its receptor: bound specifically
